Data from patent publication US11220527B2, “Peptides derived from the propeptide NTSR3 and their use in the treatment of depression” (CENTRE NATIONAL DE LA RECHERCHE SCIENTIFIQUE, priority 2016, dated 2022).

Columns and labels:
[1] = target: T1, TREK-1 channel (Homo sapiens, UniProt O95069); conditions: previously shown; cited from earlier work
T1 sequence (O95069 1-426): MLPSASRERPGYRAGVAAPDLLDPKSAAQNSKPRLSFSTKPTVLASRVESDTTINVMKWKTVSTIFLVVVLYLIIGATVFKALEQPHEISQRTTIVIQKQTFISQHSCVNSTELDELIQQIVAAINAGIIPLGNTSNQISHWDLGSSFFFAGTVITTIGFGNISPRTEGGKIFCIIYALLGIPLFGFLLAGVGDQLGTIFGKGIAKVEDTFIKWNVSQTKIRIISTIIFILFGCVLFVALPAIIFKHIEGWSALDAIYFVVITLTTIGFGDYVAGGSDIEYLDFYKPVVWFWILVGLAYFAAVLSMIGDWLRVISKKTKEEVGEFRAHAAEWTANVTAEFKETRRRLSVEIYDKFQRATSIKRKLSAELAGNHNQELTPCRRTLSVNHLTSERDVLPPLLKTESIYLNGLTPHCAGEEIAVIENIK

[2] = target: T1, TREK-1 channel; test: Whole-cell patch clamp of TREK-1 channel activity in hTREK-1/HEK293 cells; format: cell-based; parameters: expressed in transfected cells; conditions: dose-response measured at 0 mV, sigmoidal fit, FIG. 2; read-out: half-effect concentration (IC50) of TREK-1 channel activity inhibition
Method: (§1) All experiments measuring the effect of spadin analogs and spadin were performed on ßTC3 or LNCaP or HEK293 cells stably transfected with the TREK-1 channel, hTREK-1/HEK293. The hTREK-1/HEK293 cell line was prepared in the laboratory. These cells also express a reporter gene: E-Green Fluorescent Protein (EGFP) enabling their visualization.
These cells were seeded at a density of 20,000 cells/dish of 35 mm diameter, 24 to 72 hours before being used.
The HEK293 cells were cultured in DMEM medium (Gibco)/10% fetal calf serum (FCS, ICN)/1% streptomycin+penicillin mixture (Gibco)/1% glutamax (Gibco)/0.5 mg/mL of G418 (Sigma) at 37° C. in the presence of 5% CO2.
(§2) The LNCaP cells were cultured in DMEM medium (Gibco)/10% fetal calf serum (FCS, ICN)/1% streptomycin+penicillin mixture (Gibco)/1% glutamax (Gibco)/at 37° C. in the presence of 5% CO2. […] From day 2 to day 4, the cells were measured by electrophysiological methods.
(§3) All measurements were made at room temperature, i.e. at 21-22° C. The hTREK-1/HEK293 cells were identified by the fluorescence emitted by EGFP after excitation at 480 nm. […]
(§4) The cell culture medium was replaced with a solution 150 mM NaCl, 5 mM KCl, 3 mM MgCl2, 1 mM CaCl2, 10 mM HEPES/NaOH pH 7.4 containing 10 mM tetraethylammonium chloride, 3 mM 4-aminopyridine. […] The resting potential of the membrane of the measured cell was set at −80 mV. […]

[3] = tested on: insulin secretion; conditions: Hivelin et al. 2016 [27]; cited from earlier work
[4] = target: T2, TREK-1 channels expressed on the ßTC3 cells (Mus musculus, UniProt P97438); test: Whole-cell patch clamp, I=f(V), on ßTC3 cells activated with arachidonic acid; format: cell-based; conditions: previously activated with arachidonic acid, FIG. 7A
T2 construct: TREK-1 channels are present on the surface of beta-pancreatic cells such as beta-TC3 cells; endogenous in cells; host or cells: ßTC3 cells
T2 sequence (P97438 1-426): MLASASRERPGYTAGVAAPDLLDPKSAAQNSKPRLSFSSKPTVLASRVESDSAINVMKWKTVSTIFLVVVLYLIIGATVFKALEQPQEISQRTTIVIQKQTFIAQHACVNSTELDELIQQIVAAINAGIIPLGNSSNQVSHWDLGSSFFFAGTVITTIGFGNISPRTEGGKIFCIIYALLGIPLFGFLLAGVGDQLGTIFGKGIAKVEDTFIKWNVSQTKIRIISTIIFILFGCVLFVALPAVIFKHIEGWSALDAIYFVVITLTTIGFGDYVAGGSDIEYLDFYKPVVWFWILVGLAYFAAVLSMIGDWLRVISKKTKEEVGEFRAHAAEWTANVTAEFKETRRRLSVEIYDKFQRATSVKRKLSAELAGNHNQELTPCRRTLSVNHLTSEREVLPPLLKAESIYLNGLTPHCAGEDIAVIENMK
Method: as §1
The ßTC3 cells were cultured in RPMI 1640 medium supplemented with 2.5% FCS, 50 μM beta-mercaptoethanol, 10 mM HEPES, 1 mM sodium pyruvate, 50 μg/ml gentamycin and 1% of a streptomycin+penicillin mixture, at 37° C. in the presence of 5% CO2.
as §2, §3, §4

[5] = cited from earlier work

Compound: CC[C@H](C)[C@H](NC(=O)[C@@H]1CCCN1C(=O)CNC(=O)[C@H](CO)NC(=O)[C@H](Cc1c[nH]c2ccccc12)NC(=O)[C@H](CCCNC(=N)N)NC(=O)[C@@H]1CCCN1C(=O)[C@H](CC(C)C)NC(=O)[C@@H]1CCCN1C(=O)[C@H](C)NC(=O)[C@@H](N)Cc1ccc(O)cc1)C(=O)NCC(=O)N[C@H](C(=O)N[C@@H](CO)C(=O)N[C@@H](Cc1c[nH]c2ccccc12)C(=O)NCC(=O)N[C@@H](CC(C)C)C(=O)N[C@@H](CCCNC(=N)N)C(=O)O)C(C)C [spadin]
- blocking of TREK-1 channel activity [1]: specifically blocks TREK-1 channels
- IC50 [2]: 40 nM
- insulin secretion further to hyperglycemia [3]: increase insulin secretion
- blocking of arachidonic acid (aa) activated TREK-1 / potassium currents on ßTC3 cells [4]: capable of blocking the TREK-1 channels
- antidepressant behaviour in rodent models of depression ([5]; previously shown [17]): behaves as an antidepressant
- time to antidepressant effect ([5]; previously shown, 21 days for conventional antidepressants): 4 days
